Earlier results as cited in article PMC11452715, “Pharmacokinetic and pharmacodynamic evaluation of various vasopressin doses and routes of administration in a neonatal piglet model” (Scientific Reports, 2024).

Details: in vivo; cited from earlier work

Substance: 1-deamino-8-D-arginine vasopressin [DDAVP]
- bioavailability: approximately 10%
- time of peak plasma concentrations after drug administration: 1 to 2 h
